{"source": "patent US20070059785A1", "about": "“Biomarkers in cancer” (SMITHKLINE BEECHAM CORPORATION, priority 2003, published 2007)", "key": {"[1]": {"test_system": "Erk1/2", "experiment": "Western blot of p-Erk1/2 in HN5 cells"}, "[2]": {"test_system": "Erk1/2", "experiment": "Western blot of p-Erk1/2 in Hb4a cells", "details": "10 μg/ml, 72 h"}, "[3]": {"test_system": "Erk1/2", "experiment": "Western blot of p-Erk1/2 in BT474 cells"}}, "data": [{"substance": "Herceptin™: humanized anti-erbB2 monoclonal antibody [reference compound]", "values": [{"measurement": "p-Erk1/2 levels compared with untreated controls", "setting": "[1]; HN5, 10 μg/ml, 72 h", "result": "little effect"}, {"measurement": "total Erk1/2 steady state protein levels", "setting": "[1]; HN5, 72 h, GW572016 0.5 or 1 μM, Herceptin 10 μg/ml", "result": "Neither Herceptin™ nor GW572016 reduced"}, {"measurement": "baseline p-Erk levels", "setting": "[2]", "result": "relatively little change"}, {"measurement": "p-Erk1/2 levels compared with untreated controls", "setting": "[3]; BT474, 10 μg/ml, 72 h", "result": "little effect"}, {"measurement": "total Erk1/2 steady state protein levels", "setting": "[3]; BT474, 72 h, GW572016 0.5 or 1 μM, Herceptin 10 μg/ml", "result": "Neither Herceptin™ nor GW572016 reduced"}]}]}
